The target of this assay is MARylated YFP-GAP. Briefly: FRET or BRET.

By UniProt entry, the sequences of proteins in these tests, tags left out. Where a name states a change or a piece, a line headed by the entry shows the natural chain unless it says otherwise.
UniProt A1Z1Q3: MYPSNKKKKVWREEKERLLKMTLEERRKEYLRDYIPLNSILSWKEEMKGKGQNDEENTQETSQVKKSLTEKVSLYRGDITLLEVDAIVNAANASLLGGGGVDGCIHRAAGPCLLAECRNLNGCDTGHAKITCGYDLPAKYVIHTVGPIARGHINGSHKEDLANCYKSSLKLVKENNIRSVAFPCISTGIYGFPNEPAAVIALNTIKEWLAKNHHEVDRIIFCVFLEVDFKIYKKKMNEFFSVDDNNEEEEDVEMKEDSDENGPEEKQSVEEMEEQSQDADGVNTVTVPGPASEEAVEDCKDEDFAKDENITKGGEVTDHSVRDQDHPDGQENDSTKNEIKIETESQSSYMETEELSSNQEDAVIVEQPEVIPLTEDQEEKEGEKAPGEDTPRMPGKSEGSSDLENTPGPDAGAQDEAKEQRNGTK

In turn, “CFP-MDO2 (from UniProt A1Z1Q3 1-425) (enzyme)” had a Kd of 654 nM.
